## Measured affinities in a library of Ab-14 heavy chain variants

Target peptide (SARS-CoV-2 spike, HR2 region): PDVDLGDISGINAS

The variants keep the light chain, the linker and the frameworks of Ab-14 (scFv order VH, three GGGGS repeats, VL).
VH: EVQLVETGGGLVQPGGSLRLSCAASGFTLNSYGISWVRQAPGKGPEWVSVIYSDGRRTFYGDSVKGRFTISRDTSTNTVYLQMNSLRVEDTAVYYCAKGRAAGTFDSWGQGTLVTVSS
VL: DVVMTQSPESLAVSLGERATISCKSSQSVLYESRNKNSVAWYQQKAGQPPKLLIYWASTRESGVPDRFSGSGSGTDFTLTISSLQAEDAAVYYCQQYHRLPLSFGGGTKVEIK

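Phage display of a naive human antibody library on the peptide gave the parent. Designed CDR sequences, proposed from the first random library and measured here. Group labels follow the data file (Ctrl: baseline library sampled from a position-specific scoring matrix, with some repeated check sequences; GPLM: also part of the Gaussian process libraries; HC: hill climbing; a sequence that several methods proposed may carry one label only). Affinity was read by AlphaSeq, a pooled yeast mating assay with surface-displayed partners. Pairs that bind mate more often; barcode pairs of the diploids are counted by sequencing. Each replicate has its own calibration line, from reference interactions of the BCL2 family. Mating was done six times.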

Each variant is given by its three heavy chain CDRs, as the data file delimits them; those of the parent are GFTLNSYGIS, VIYSDGRRTFYGDSVK, GRAAGTFDS. The read-out is the apparent dissociation constant on a log10 scale (nM): the lower, the stronger. "nd" means that the variant was in the library but no mating with the target was seen in that replicate; the authors take this as a sign of poor binding, and no number exists. A sequence that the file lists under several names has all its replicates listed entry by entry, parted by semicolons.

GFTLQDYGIS / VIYSDGRRTFYGDSVK / GRAAGTFDS [Ctrl]: 1.15, 1.08, 0.87, 1.39, 0.69, 1.31 (controls 1 of 18).
GFTINSYGIS / VIYSDGRRTFYGDAVK / GRADGTFDS [Ctrl]: nd, nd, nd, nd, nd, nd (controls 0 of 18).
GFTINSYGIS / VIYSDGRRTAYEDSVK / DRAAGTFDS [Ctrl]: 1.18, nd, nd, 1.98, 3.39, 2.49 (controls 0 of 18).
GFTLNSYGIS / VDYSDGRRTFYDDSVK / GTAADTFDS [Ctrl]: nd, nd, nd, nd, nd, nd (controls 0 of 18).
GFQINSYGIS / VIYSDGRRTFYGDQVK / GRAAGTFDS [Ctrl]: nd, nd, 2.98, 2.20, nd, nd (controls 0 of 18).
GASLNSYGIS / VIYSDGRRTFYGDQVK / GRAADTDDS [Ctrl]: nd, nd, nd, nd, nd, nd (controls 0 of 18).
GFTLNDYGIS / VIYADGRRTFYGDSVK / GILTGTFDS [Ctrl]: nd, nd, nd, nd, nd, nd (controls 0 of 18).
GFNLNSYGIS / VIYSDGRRTFYGDSVR / GRAAGTFDS [Ctrl]: nd, 1.42, 1.52, nd, 1.01, 1.20 (controls 0 of 18).
GFELNSYGIS / VIYSDGRRTAYGDSVK / GYAAGTFDT [Ctrl]: -0.15, -0.21, 0.31, -0.44, 0.62, 0.04 (controls 0 of 18).
GFHLNSYGIS / VIYSDGRRTFYSDSVK / GRAACTFDS [Ctrl]: nd, nd, nd, nd, nd, nd (controls 0 of 18).
GFTILSYGIS / VIYSDGRRTFYGDSVK / GRAAGTFDS [Ctrl]: nd, 0.43, 0.91, 1.55, 0.47, nd (controls 1 of 18).
GFTLNSYGIS / VIYADGRRTFYGDSVK / GRLADTFDV [Ctrl]: nd, nd, nd, nd, nd, nd (controls 0 of 18).
GFTLNEYGIS / VIYSDGRRTFYGDSVK / GRFAGTFDS [Ctrl+GPLM_HC]: 0.65, 0.75, 0.60, 0.72, 1.83, 1.65; -0.43, -0.11, -0.34, -0.47, -0.39, -0.19 (controls 0 of 36).
GITLNSYGIS / VIYSDGRRTFYKDSVK / GRAAGTPDS [Ctrl]: nd, nd, nd, nd, nd, nd (controls 1 of 18).
GFTLNSYGIS / VIYADGRRTFYGDSVK / RRTAGTFDA [Ctrl]: nd, nd, nd, nd, nd, nd (controls 0 of 18).
GFTLNSYGIS / VIYSDGRRTFYDDSVK / GRQAGTFDS [Ctrl]: 1.65, nd, 0.65, 2.08, 3.02, nd (controls 0 of 18).
GFTLDSYGIS / VIYSDGRRTFYGDSVK / GPAAGTFDS [Ctrl]: nd, nd, nd, nd, nd, nd (controls 0 of 18).
GFWLNEYGIS / VIYSDGRRTFYGDSIK / RRAAGTFNS [Ctrl]: nd, nd, nd, nd, nd, nd (controls 0 of 18).
GFTPNSYGIS / HIYSDGRRTFYADSVK / GRAAGTFDS [Ctrl]: nd, nd, nd, nd, nd, nd (controls 0 of 18).
GAQLNSYGIS / VIYSDGRRTFYGDSVK / GRPAGTFDS [Ctrl]: nd, nd, nd, nd, nd, nd (controls 0 of 18).
GFGLNSYGIS / VIYSDGRRTFYGDSVK / GLAAGTTDS [Ctrl]: nd, nd, nd, nd, nd, nd (controls 0 of 18).
GFRLNSYGIS / VIYSDGRRTFYGDSVK / GRAAGCFDS [Ctrl]: nd, nd, nd, nd, nd, nd (controls 1 of 18).
GFTLNSYGIS / VIYSDGRRTMYIQSVK / GRAAGTFDS [Ctrl]: nd, nd, nd, nd, nd, nd (controls 0 of 18).
GFSLNSYGIS / VIYSDGMRTFYGDQVK / GFAAGGFDS [Ctrl]: nd, nd, 1.29, nd, 3.94, 2.32 (controls 0 of 18).
GFTLNKCGIS / VIYSDGRRTAYGDSVD / GSAAGTFDS [Ctrl]: nd, nd, nd, nd, nd, nd (controls 0 of 18).
GFTLNSYGIS / VIYSDGERTEYGDSVK / GRAAGTAVS [Ctrl]: nd, nd, nd, nd, nd, nd (controls 0 of 18).
GFTLQSYGIS / VIYSDGRRTFYGDSVK / GRAAGTFWS [Ctrl]: nd, nd, nd, nd, nd, nd (controls 0 of 18).
GFTLNDYGIS / VIYSDGYRTFYGDSVK / GDAAGTVDS [Ctrl]: nd, 2.88, nd, 2.26, nd, nd (controls 0 of 18).
GFTLNEYGIS / VIYSDGRRTFYQDSVK / GRAMGTFDS [Ctrl]: nd, nd, nd, nd, nd, nd (controls 0 of 18).
GFTLRSYGIS / VIYSDGRRTQYGDSVK / GRLMGTSDS [Ctrl]: nd, nd, nd, nd, nd, nd (controls 0 of 18).
GFTLNSYGIS / VIYSDGRRTFYIDSVK / GRAAGTFSL [Ctrl]: nd, nd, nd, nd, nd, nd (controls 0 of 18).
GTHLNKYGIS / VIYSDGRRTAYSDSVK / GRAADTFDS [Ctrl]: 4.02, nd, nd, nd, nd, nd (controls 0 of 18).
GFTLNSYGIS / VIYADGRRTFYGDSVK / GRQAGTFDS [Ctrl]: 0.02, 0.12, 0.05, 0.62, 0.67, 0.08 (controls 0 of 18).
QFTLNSYGIS / VIYSDGRRTFYDDSVK / GRAAGTFDS [Ctrl]: nd, nd, nd, nd, nd, 2.17 (controls 1 of 18).
GFTLNSYGSS / VIYSDGRRTAYGDSVD / GREAGTFSS [Ctrl]: nd, nd, nd, nd, nd, nd (controls 0 of 18).
GFVLNSQGIS / VIYSDGRRTFYGDSVK / GRAAGTFDS [Ctrl]: 0.29, 0.13, 1.29, 0.21, 0.00, 1.01 (controls 0 of 18).
GFTLNSYGIS / VIYSDGRRTFIDDSVK / GRAAGTFDS [Ctrl]: nd, 2.29, nd, 3.69, 3.29, nd (controls 0 of 18).
GFTLNSYGIS / VIYSDGRRTFYGDSVK / GRAAGTFVS [Ctrl]: nd, nd, nd, nd, nd, nd (controls 0 of 18).
GFTLNSYGIS / VIYSDGRRTFYGDSVK / GRAAGTFDK [Ctrl]: nd, nd, nd, nd, nd, nd (controls 0 of 18).
GFTLMSYGIS / VIYSDGRRTFYRDQVK / GRAAGTFDS [Ctrl]: nd, nd, nd, nd, nd, nd (controls 1 of 18).
GFTLNSYGIS / VIYSDGRRTMYGDSVK / GRNAGTFDS [Ctrl]: -0.10, -0.38, -0.87, -0.41, -0.37, 0.58 (controls 0 of 18).
GFTLNSYGIS / VIYSDGRRTFYGDSVK / GRAAGTFDE [Ctrl]: nd, nd, nd, nd, nd, nd (controls 0 of 18).
GFTLNSYGIS / VIYSDGRRTIYIDSVK / GRNALTFDS [Ctrl]: nd, nd, nd, nd, nd, nd (controls 0 of 18).
GFTLNSYGIS / VIYSDGRRTFYGDSFK / GGESGTFDT [Ctrl]: nd, nd, nd, nd, 1.77, nd (controls 0 of 18).
GFTLNSYGIS / VIYNDGRRTFYGDSVK / GDNADTFDS [Ctrl]: nd, nd, nd, nd, nd, nd (controls 0 of 18).
GFTLNSYGIS / VIYSDGRRTFYSDSVK / GRAAGTFTS [Ctrl]: nd, nd, nd, nd, nd, nd (controls 0 of 18).
GNTLSSYGIS / VIYSDGRRTFYGDSVK / GREPGPFDS [Ctrl]: nd, nd, nd, nd, nd, nd (controls 0 of 18).
GITLNSYGIS / VIYSDGRRTFYGDSSK / DHAAGTFDS [Ctrl]: nd, nd, nd, nd, nd, nd (controls 0 of 18).
GFTLNSYGIS / VIYSDGRRTAYGDSVK / GMAAGTFIS [Ctrl]: nd, nd, nd, nd, nd, nd (controls 0 of 18).
GFTLNSYGIS / VIYSDGMRTFYKDSVK / GRAAGTGDS [Ctrl]: nd, nd, nd, nd, nd, nd (controls 0 of 18).
GFTLNSYGIS / VIYSDGRRVFYGDSVK / GRAAVVFDV [Ctrl]: nd, nd, nd, nd, nd, nd (controls 1 of 18).

A selection of 5 entries from above:

With GFTLNDYGIS / VIYADGRRTFYGDSVK / GILTGTFDS [Ctrl] the result was nd, nd, nd, nd, nd, nd (controls 0 of 18).
With GFTLNSYGIS / VIYSDGRRTFYDDSVK / GRQAGTFDS [Ctrl] the result was 1.65, nd, 0.65, 2.08, 3.02, nd (controls 0 of 18).
With GFELNSYGIS / VIYSDGRRTAYGDSVK / GYAAGTFDT [Ctrl] the result was -0.15, -0.21, 0.31, -0.44, 0.62, 0.04 (controls 0 of 18).
With GFTILSYGIS / VIYSDGRRTFYGDSVK / GRAAGTFDS [Ctrl] the result was nd, 0.43, 0.91, 1.55, 0.47, nd (controls 1 of 18).
With GFTLNSYGIS / VIYSDGRRTAYGDSVK / GMAAGTFIS [Ctrl] the result was nd, nd, nd, nd, nd, nd (controls 0 of 18).

In the paper, a design with two or fewer of six values counts as a poor binder. A sequence measured in both rounds can read differently, since the two assays cover different ranges. Three control strains display no target. For all heavy chain designs, 1% of the pairings with them gave a signal, with a median of 2.08 and one signal in twenty below 0.84, so weak values seen in few replicates may be background. Also given: how often the same scFv was detected with the empty control strains. The parent sequence was in this pool as ten entries: three were never detected, three once, and four in most replicates, with averages from 0.34 to 2.37.

The measurements come from Li et al. 2023 (doi:10.1038/s41467-023-39022-2) through the FLAb antibody collection.